This is one part of the list.
What follows are compounds tested on A. baumannii ATCC 17978 (assay: relative growth (fraction of control); higher = less inhibition). Conditions: 50 µM.
`CC(C)(C#N)c1cc(Cn2cncn2)cc(C(C)(C)C#N)c1` was tested, and the relative growth was 0.919. For `CO[C@@H]1[C@H](N(C)C(=O)c2ccccc2)C[C@H]2O[C@]1(C)n1c3ccccc3c3c4c(c5c6ccccc6n2c5c31)C(=O)NC4`, the relative growth was 1.01. `C=CC(C1=CC(=O)C(OC)=CC1=O)c1ccc(OC)cc1` (stereo not drawn) gave a relative growth of 0.954. In the case of `O=C(C[C@H]1CC[C@H]2[C@@H](COC[C@@H](O)CN2Cc2ccccc2F)O1)N[C@@H]1CCN(Cc2ccccc2)C1`, the relative growth was 0.786. `O=C(C[C@@H]1CC=CCCC(=O)OC[C@H](Cc2c[nH]c3ccccc23)NC1=O)N[C@H](CO)Cc1ccccc1` was tested, and the relative growth was 0.871. Work on `Cc1ccc(C(=O)Oc2ccc(/C=N/c3cccs3)cc2)cc1` yielded a relative growth of 0.922. Work on `Oc1c(I)cc(Cl)c2cccnc12` yielded a relative growth of 0.671. In the case of `CCCN1CCCc2cc(CCN)ccc21`, the relative growth was 0.932. `COc1ccccc1OCC(O)CO` (stereo not drawn) gave a relative growth of 1.09. Work on `C[C@H](CO)N1C[C@H](C)[C@@H](CN(C)C(=O)Cc2ccncc2)Oc2cc(C#CC3(O)CCCC3)ccc2S1(=O)=O` yielded a relative growth of 0.971. Compound `O=C(C[C@@H]1CC[C@@H]2[C@H](COC[C@H](O)CN2C(=O)c2ccc3c(c2)OCO3)O1)NC1Cc2ccccc2C1` has a relative growth of 1.1. Compound `C[C@@H]1CC[C@H]2C(C)(C)C3CC12CC[C@@]3(C)O` (stereo partly drawn) has a relative growth of 1.01. `C[C@H](CO)N1C[C@H](C)[C@H](CN(C)CC2CCOCC2)Oc2cc(C#Cc3cccnc3)ccc2S1(=O)=O` was tested, and the relative growth was 0.985. Compound `CNC(=O)C[C@@H]1CC[C@H]2[C@@H](COC[C@H](O)CN2C(=O)c2ccc3c(c2)OCO3)O1` has a relative growth of 1.07. `O=C(C[C@@H]1CC[C@@H](NC(=O)CN2CCOCC2)[C@@H](CO)O1)NCCc1ccccc1` showed a relative growth of 1.08. `Cc1cc(=O)[nH]c(=S)[nH]1` showed a relative growth of 1.16. With `COCC(=O)Nc1ccc2c(c1)C(=O)N(C)C[C@H](OC)[C@H](C)CN(Cc1cccc(F)c1)[C@H](C)CO2` the relative growth was 0.998. Work on `COc1cc(C)c(C(=O)O)c(OC(C)=O)c1` yielded a relative growth of 1.25. `CN1C(=O)COc2cc(N)ccc21` showed a relative growth of 0.984. In the case of `CC(=O)O[C@@H]1[C@H](OC(C)=O)N(C(C)=O)C(=O)N1C(C)=O`, the relative growth was 1.04. In the case of `CCN(CCCc1ccccc1)CCCc1ccccc1.O=C(O)CC(O)(CC(=O)O)C(=O)O`, the relative growth was 0.995. In the case of `CN(C)Cc1cn(CC[C@@H]2CC[C@H](NC(=O)Cc3cccnc3)[C@@H](CO)O2)nn1`, the relative growth was 1.07. `Cc1ncc(C[n+]2csc(CCO)c2C)c(N)n1.Cl.[Cl-]` gave a relative growth of 0.909. Compound `Nc1ncnc2c1c(I)cn2[C@H]1O[C@@H](CO)[C@@H](O)[C@@H]1O` has a relative growth of 0.664. `CN(C)CCCCNC(=O)[C@H]1C[C@H]2C(=O)N[C@@H](CCCCN(C)C)C(=O)N2[C@H]1c1cccc(OCCO)c1` showed a relative growth of 0.92. `O=C(CCCCCCCC(=O)NCCO)NCCO` was tested, and the relative growth was 1.17. For `COC(=O)C[C@H]1CC[C@@H](N)[C@@H](CO)O1`, the relative growth was 0.898. Work on `COCCNC(=O)C[C@@H]1CC[C@H](NS(=O)(=O)c2ccc(C)cc2)[C@H](CO)O1` yielded a relative growth of 1.06. With `Clc1ccc(-c2csc(-c3ccc4c(c3)CCO4)n2)s1` the relative growth was 1.08. Work on `Cc1ccc(S(=O)(=O)C[C@H](C)N2CCOCC2)c(S(=O)(=O)C[C@@H](C)N2CCOCC2)c1` yielded a relative growth of 1.09. For `OC[C@@H](O)[C@H]1O[C@H](c2ccccc2)OC[C@@H]1O`, the relative growth was 0.86. Work on `COc1ccc(CN2CCN(C(c3ccc(F)cc3)c3ccc(F)cc3)CC2)c(OC)c1OC.Cl` yielded a relative growth of 1.17. `CC(=O)OCC(=O)[C@@]1(O)[C@H](C)CC2C3CCC4=CC(=O)C=C[C@]4(C)[C@@]3(F)[C@@H](O)C[C@@]21C` (stereo partly drawn) was tested, and the relative growth was 0.944. `COc1cccc(C#Cc2ccc3c(c2)O[C@@H](CN(C)C(=O)CN2CCOCC2)[C@H](C)CN([C@@H](C)CO)S3(=O)=O)c1` was tested, and the relative growth was 0.681. For `COc1ccc([C@@H]([C@H](Cc2ccccc2)OC(C)=O)N2C[C@@H](CC(=O)N(C)C)[C@H]3[C@@H]([C@@H]2Cc2ccccc2)N(C)O[C@@H]3c2ccccc2)cc1`, the relative growth was 1.2. For `COc1ccc(/C=C/C(=O)Nc2ccccc2C(=O)O)cc1OC`, the relative growth was 1.08. In the case of `COCC(=O)Nc1ccc2c(c1)C(=O)N(C)C[C@H](OC)[C@@H](C)CN(Cc1ccccc1F)[C@H](C)CO2`, the relative growth was 0.908. `COCCOC(=O)N1C(=O)[C@@]2(c3ccccc31)[C@H](c1ccc(OCCO)cc1)N1[C@H](c3ccccc3)[C@H](c3ccccc3)OC(=O)[C@H]1[C@@H]2C(=O)Nc1nc2ccccc2s1` gave a relative growth of 0.902. `COc1ccc(S(=O)(=O)N2C[C@H](O)COC[C@@H]3O[C@H](CC(=O)N[C@H]4CCN(Cc5ccccc5)C4)CC[C@H]32)cc1` was tested, and the relative growth was 1.09. Compound `C=CC[C@@H](CC(=O)N[C@@H](CO)Cc1ccccc1)C(=O)NC[C@H](OC(=O)[C@@H](CC=C)Cc1ccc(F)cc1)c1ccccc1` has a relative growth of 0.844. With `Nc1ccc(S(=O)(=O)[N-]c2cnc3ccccc3n2)cc1.[Na+]` the relative growth was 1. `C=C(C)[C@@H]1CC[C@]2(CO)CC[C@]3(C)[C@H](CCC4[C@@]5(C)CC[C@H](O)C(C)(C)C5CC[C@]43C)C12` (stereo partly drawn) was tested, and the relative growth was 0.818. `Oc1ccc(/C=C/c2cc(O)cc(O)c2)cc1` showed a relative growth of 1.18.

From published antibiotic growth screens (doi:10.1038/s41589-023-01349-8)
